Measurements reported in US8933046B2 (priority 2009, dated 2015).

System: influenza A/WSN/33 virus

CCN1/C(=C/C(C)=O)Sc2ccc(OC)cc21 [TG003]
Influenza virus propagation inhibited: more than 93% | reduces influenza virus replication: more than two orders of magnitude
